The record followed here is patent US12622944B2, “Compositions containing, methods involving, and uses of non-natural amino acid linked dolastatin derivatives” (priority 2011, dated 2026).

Read-outs that look alike come from different tables or passages of the source.

The test system of one assay is MDA-MB-175. In words: In vitro inhibition of proliferation assay (WST-8), MDA-MB-175. Type of assay: cell-based. The note with it: Data Set I, experiment Sept. 13, 2010, read-out: IC50 Values [nM] after 72 hr drug treatment. How it is done: (§1) At day 1, the cells were seeded. The media was aspirated and the T-225 culture flasks of cells was rinsed with 30 mL PBS−/. PBS was aspirated and 6 mL of 0.25% Trypsin-EDTA was added to each flask. The flasks were incubated at 37° C., 5% CO2 for 2-5 minutes. Adherent cells were dislodged by hitting flask and trypsin was neutralized by adding 14 mL culture medium. The cell suspension was mixed and transferred to a 50 mL conical tube. The cells were spun down at 1200 rpm, 5 min, room temperature. The resultant cell pellet was resuspended in 12 mL of culture medium. The cells were counted in a hemacytometer. Cells were seeded at appropriate cell densities into 96-well flat-bottom, clear plates and incubated overnight at 37° C., 5% CO2 to allow cells to attach. Plating volume was 80 uL/well. 80 uL/well of culture medium was utilized as the “no cell” control.
(§2) At day 2, the test samples were added to the cells. The test samples were diluted in culture medium to a 9× stock concentration in Column 2 of a round-bottom 96-well plate. 3× serial dilutions were made from Column 2 to Column 11 with a multi-channel pipettor. 10 uL/well of the above samples was added in duplicate to the appropriate wells of the seeded plate. The total volume in the wells was about 90 uL/well. […]
(§3) At day 5, proliferation readout occurred. […] The plates were measured for absorbance at OD 450 nm. […]
In general terms: Formazan colour is commonly taken as a measure of viable cells.

For a further assay, the system named is HT29. Description: In vitro inhibition of proliferation assay (WST-8), HT29. Type of assay: cell-based. The settings on record: Data Set II, experiment Sept. 24, 2010, read-out: IC50 Values [nM] after 72 hr drug treatment. How it is done: as §1
(§4) Cell plating density examples include: • BT474 (high Her2)—20,000 cells/well in F12k/DMEM (50/50), 10% FBS, P/S • MDA-MB-468 (Her2 negative)-6,000 cells/well in F12k/DMEM (50/50), 10% FBS, P/S • HCC1954—5,000 cells/well in RPMI 1640, 10% FBS, P/S • SKOV-3—6,000 cells/well in RPMI 1640, 10% FBS, P/S • HT29—20,000 cells/well in McCoy's 5A, 10% FBS, P/S
(§5) At day 2, the test samples were added to the cells. […]
as §3

The next assay relates to NCI-N87. Description: In vitro inhibition of proliferation assay (WST-8), NCI-N87. Type of assay: cell-based. The note with it: Data Set I, experiment Sept. 4, 2010, read-out: IC50 Values [nM] after 72 hr drug treatment. How it is done: as §1, §2, §3
The subject of a further assay is LS513. In words: In vitro inhibition of proliferation assay (WST-8), LS513. Type of assay: cell-based. The settings on record: Data Set I, experiment Sept. 4, 2010, read-out: IC50 Values [nM] after 72 hr drug treatment. The procedure:
as §1, §2, §3

For a further assay, the system named is MDA-MB-468. Description: In vitro inhibition of proliferation assay (WST-8), MDA-MB-468. Type of assay: cell-based. The note with it: Data Set II, experiment Oct. 8, 2010, read-out: IC50 Values [nM] after 72 hr drug treatment. How it is done:
as §1, §4, §5, §3

A further assay has as its system SKOV-3. In words: In vitro inhibition of proliferation assay (WST-8), SKOV-3. Type of assay: cell-based. The procedure: as §1, §4
(§6) At day 2, the test samples were added to the cells. The test samples were diluted in culture medium to a 9× stock concentration in Column 2 of a round-bottom 96-well plate. 3× serial dilutions were made from Column 2 to Column 11 with a multi-channel pipettor. 10 uL/well of the above samples was added in duplicate to the appropriate wells of the seeded plate. The total volume in the wells was about 90 uL/well. 10 uL/well of culture medium was added to avoid edge effects for sample wells. Media Control wells were included in the inner wells where no sample was added (just 10 uL/well of culture medium) to be used in proliferation calculations. The plates were incubated at 37° C., 5% CO2 for 72 hrs.
as §3

Assay [1] relates to HCC1954 (human breast carcinoma) xenograft. Description: In vivo anti-tumor efficacy in HCC1954 xenograft, SCID-bg mice. The settings on record: day 28, HCC1954 study. How it is done: HCC1954 (human breast carcinoma) cells were obtained from American Type Culture Collection (Manassas, VA) and cultured in RPMI+10% FBS, 37° C., 5% CO2 until 80% confluent. Cells were harvested by trypsinization and suspended in PBS at 1×10^8 cells/mL.
Female, SCID-beige mice, 5-8 weeks old, were obtained from Charles River Laboratories. HCC1954 cells (human, breast carcinoma, ATCC, #CRL-2338) were mixed 1:1 with Matrigel (BD Biosciences, Bedford MA) and injected subcutaneously into the mice. When tumors reached an average size of 100-200 mm^3, mice were sorted into groups of 9-10 mice each. Caliper measurements were taken twice weekly until the end of the study. To estimate tumor volume, two orthogonal diameters were measured with calipers and the values entered into the formula, (L×W×W)/2=V, (where W=the shortest diameter, L=the longest diameter and V-volume), to obtain an estimated volume. The tumor volume was converted to tumor weight in the Excel data file by assuming 1 mm^3=1 mg. Endpoint was based on a study design of tumor growth inhibition (TGI). When the mean tumor volume of the control group reached approx. 1,000 mm^3 all mice were euthanized or day 28, whichever came first.
Mice were given a single IV injection (tail vein) on day 1 of dosing. Test article was dissolved at 4 mg/mL, 2 mg/mL and 0.66 mg/mL and administered at a dose volume of 5 mL/kg to deliver 20, 10 and 3.3 mg/kg. Test articles were: Herceptin® clinical grade (Trastuzumab), Her2-HS122-NCD1 (Ab:Drug ratio=1:2, non-cleavable linker), and Her2-HS122/LK145-HCD1 (Ab:Drug ratio=1:4, cleavable linker) See FIG. 16.
HCC1954 cells were utilized for this study with 10 cells/mouse in Matrigel, SC in the right flank. Mice were SCID-bg female 4-8 weeks. Grouping was performed at day 5 after cell implantation (tumors˜100 mm^3): sorted into 11 groups of 10 mice each. A single IV dose was given on day 1 of dosing with each compound at 3 dose levels, 20 mg/kg, 10 mg/kg and 3.3 mg/kg. Tumor volume was monitored until the endpoint was reached (1,000 mm^3 or 60 days). (FIG. 10) Paclitaxel 25 mg/kg, IV, qod×5 was employed as the control chemotherapy. The vehicle=50 mM histamine, 0.1 M NaCl, 5% trehalose, pH 6. Herceptin® clinical grade (Trastuzumab), Her2-14S122-NCD1 (non-cleavable linker) and Her2-HS122/LK145-HCD1 (cleavable linker) were tested. (FIGS. 11 and 12)

The subject of the next assay is HCC1954. In words: In vitro inhibition of proliferation assay (WST-8), HCC1954. Type of assay: cell-based, human. The note with it: read-out: IC50 Values [nM] after 72 hr drug treatment. The procedure: as §1, §4, §5, §3
A further assay deals with BT474. In words: In vitro inhibition of proliferation assay (WST-8), BT474. Type of assay: cell-based. The procedure: as §1, §4, §6, §3
The next assay concerns ZR-75-30. Description: In vitro inhibition of proliferation assay (WST-8), ZR-75-30. The note with it: Data Set I, experiment Sept. 4, 2010, read-out: IC50 Values [nM] after 72 hr drug treatment. Type of assay: cell-based. How it is done: as §1, §2, §3
Where [2] appears, read: Data Set I, experiment Sept. 4, 2010, read-out: IC50 Values [nM] after 72 hr drug treatment.
[3] abbreviates: Data Set I, experiment Sept. 13, 2010, read-out: IC50 Values [nM] after 72 hr drug treatment.

“Herceptin: Herceptin clinical grade (Trastuzumab), humanized monoclonal antibody that binds HER2/neu receptor”: the IC50 in the assay on MDA-MB-175, with HT29, with NCI-N87, with LS513, in the assay with MDA-MB-468 and in the assay with SKOV-3 (setting [2]) was over 300 nM in each case. Moreover, the 50% inhibitory concentration (IC50) with SKOV-3 (setting [3]) was over 300 nM; with SKOV-3 (Data Set II, experiment Oct. 8, 2010, read-out: IC50 Values [nM] after 72 hr drug treatment), over 300 nM; in the assay on HCC1954 (HCC1954, Data Set I, experiment Sept. 4, 2010) it was over 300 nM; in the assay on HCC1954 (HCCI954, Data Set II, experiment Oct. 8, 2010) it was over 300 nM; in the assay on BT474 (setting [2]) it was over 300 nM; in the assay with BT474 (setting [3]), over 300 nM. The IC50 was over 300 nM in the assay with BT474 (Data Set II, experiment Sept. 24, 2010, read-out: IC50 Values [nM] after 72 hr drug treatment) and over 300 nM in the assay with ZR-75-30. Further, the results for the “Median Tumor Volume (mm3)” value in assay [1] (3.3 mg/kg iv qd × 1), in assay [1] (10 mg/kg iv qd × 1) and in assay [1] (20 mg/kg iv qd × 1) were 405 mm3, 446 mm3 and 385 mm3, respectively. The “T/C (Treated/Control)” value in assay [1] (3.3 mg/kg iv qd × 1) is on record as 0.833; in [1] (10 mg/kg iv qd × 1), 0.918; in [1] (20 mg/kg iv qd × 1) it was 0.792.

For orientation: IC50 means the concentration that inhibits the measured activity by half.
